Patent publication US20040006214A1

Target: hepatitis C virus in patient serum
Test: immobilized adsorbent shaken with HCV patient serum 37 C 2 h; HCV RNA in supernatant against saline control

Question: For “protein A (Sigma) (from UniProt P38507 37-477)”, which Adsorption rate (%) is on record?
Answer: Its Adsorption rate (%) is 66%.
